Source: PMC12947556

Assays:
[1] = target: ([H3K4me3K9acK14acK18ac]2) semisynthetic mononucleosome; assay: Luminex bead-based binding assay; GST-BPTF PHD-BD against PTM-defined semisynthetic nucleosomes; relative EC50 (EC50^Rel); methods in the SI
[2] = target: ([H3K4me3K9acK14acK18ac]2) semisynthetic mononucleosome; assay: native MS; Nuc-MS MS1: GST-BPTF PHD-BD constructs mixed with PTM-defined semisynthetic mononucleosomes, intact complexes; three independent experiments
GST-BPTF PHD-BD = GST-BPTF PHD-BD (UniProt Q12830); assay: as above

- EC50 [1]: 0.0234 µM
- stoichiometry N [2]: 2
- stoichiometry N (GST-BPTF PHD-BD): 2
Substance: GST-BPTF PHD-BD (from UniProt Q12830 1-3046) (domain or fragment)
